System: patients evaluated for sleep disturbances after oral surgery
Experiment: Study A: single dose after oral surgery, ibuprofen, diphenhydramine and combination vs placebo
Conditions: 5-point scale 0=did not fall asleep to 4=very easy, ibuprofen 400 mg, diphenhydramine HCl 50 mg

`CN(C)CCOC(c1ccccc1)c1ccccc1` [DPH, 2-(diphenylmethoxy)-N,N-dimethylethylamine] was tested, and the “Ease of Falling Asleep” value was 1.06 A.
